According to PubChem BioAssay AID1832 (Broad Institute, 2009):
This is a selection; strong and weak results do not stand in their true shares. Active and inactive are the calls of the source.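 Rule for the calls: active = inhibition past about -25% in most replicates, and total fluorescence under double the plate's negative control median (limit read from the data); inconclusive = replicates evenly split on the limit, or fluorescence at least double controls; inactive = too little inhibition in most replicates.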

Chains of the proteins cited; added tags and fusions are not shown.
UniProt Q9XUB2, whole entry: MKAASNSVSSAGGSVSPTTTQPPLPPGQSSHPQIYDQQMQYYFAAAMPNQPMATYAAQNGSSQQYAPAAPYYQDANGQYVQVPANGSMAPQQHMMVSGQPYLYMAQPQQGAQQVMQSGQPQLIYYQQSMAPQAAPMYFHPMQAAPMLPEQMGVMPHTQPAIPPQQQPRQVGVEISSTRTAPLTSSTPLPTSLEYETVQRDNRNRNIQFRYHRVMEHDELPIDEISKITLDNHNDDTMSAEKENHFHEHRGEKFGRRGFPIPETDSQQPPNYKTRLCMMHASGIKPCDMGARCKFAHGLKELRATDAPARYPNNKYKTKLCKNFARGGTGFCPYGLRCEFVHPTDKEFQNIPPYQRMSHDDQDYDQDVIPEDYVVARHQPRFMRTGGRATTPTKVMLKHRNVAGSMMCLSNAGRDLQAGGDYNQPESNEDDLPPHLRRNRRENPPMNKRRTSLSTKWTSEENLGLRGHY

Each molecule was assayed against Zinc finger protein mex-5 (Caenorhabditis elegans) (UniProt Q9XUB2) (assay: MEX-5 zinc finger RNA-binding disruptors – biochemical, C. elegans, fluorescence polarization, MLPCN library, primary screen (AID 1832;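 note: 0% = DMSO and -100% = 5 µM competing unlabeled TCR2 RNA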)). Details: MEX-5/FITC-TCR2 RNA binding, at 10 µM, active compounds read low.

SMILES | activity score (negative = inhibition of binding)
CCCOc1ccc(C(=O)NCC2(N(C)C)CCCCC2)cc1OC | inactive: 0.0546%
CN1CCC(Nc2cccc(F)c2)CC1 | inactive: 2.2%
COc1cc(OC)c(C(=O)NCC2(N(C)C)CCCCC2)cc1OC | inactive: -1.08%
CC(C)c1ccc(NC2CCN(C(=O)OC(C)(C)C)CC2)cc1 | inactive: -2.81%
CN(C)c1cccc(C(=O)NCC2(N3CCCCC3)CCCCC2)c1 | inactive: 3.36%
COc1ccc(CN(CCCl)CCCl)cc1Cl | inactive: 1.39%
O=C(NCC1(N2CCOCC2)CCCCC1)c1cc(=O)[nH]c2ccccc12 | inactive: -3.38%
COc1cc(C(=O)NCC2(N3CCCCC3)CCCCC2)ccc1OC(F)F | inactive: 1.29%
COc1ccc(NC2CCN(C(=O)OC(C)(C)C)CC2)cc1 | inactive: -0.633%
CN1CCN(CCOC(=O)C(O)(c2ccccc2)c2ccccc2)CC1 | inactive: 1.33%
O=C(NCC1(N2CCCCC2)CCCCC1)c1cccc(C(F)(F)F)c1 | inactive: 2.01%
N#CC1(Nc2ccccc2)CCN(CCc2ccccc2)CC1 | inactive: 1.39%
CCN1CCC(Nc2ccc(Cl)cc2)CC1 | inactive: 2.49%
O=C(NCC1(N2CCCCC2)CCCCC1)c1cccc([N+](=O)[O-])c1 | inactive: 1.57%
O=C(NCC1(N2CCCCC2)CCCCC1)c1ccc(OC(F)F)cc1 | inactive: 1.43%
Cc1ccc(OCC(C)C)c(CN(CCCl)CCCl)c1 | inactive: 1.22%
CCOC(=O)N1CCC(Nc2cccc(C)c2)CC1 | inactive: 1.91%
COc1cc(C(=O)NCC2(N(C)C)CCCCC2)ccc1OC(F)F | inactive: 2.53%
CCOC(=O)N1CCC(Nc2ccc(F)cc2)CC1 | inactive: 1.32%
COc1ccc(NC2CCN(CCc3ccccc3)CC2)c(OC)c1 | inactive: -1.55%

SMILES | activity score (negative = inhibition of binding)
O=C(NCC1(N2CCCCC2)CCCCC1)c1ccc(F)cc1 | inactive: -2.3%
CCOc1ccc(C)cc1CN(CCCl)CCCl | inactive: -1.28%
N#CC1(Nc2ccccc2)CCN(Cc2ccccc2)CC1 | inactive: 4.42%
O=C(OC1CN2CCC1CC2)C1c2ccccc2Oc2ccccc21 (centres undefined) | inactive: 0.117%
CCOC(=O)N1CCC(Nc2ccc(OC)cc2)CC1 | inactive: -0.314%
Cc1cc(C)cc(N(C(=O)c2ccccc2)C2CCN(C(=O)OC(C)(C)C)CC2)c1 | inactive: 0.0547%
O=C(NCC1(N2CCCCC2)CCCCC1)c1ccc(Cl)nc1 | inactive: -2.09%
O=C(NCC1(N2CCOCC2)CCCCC1)c1cc2ccccc2o1 | inactive: -0.133%
CSc1ccccc1C(=O)NCC1(N2CCCCC2)CCCCC1 | inactive: 4.09%
CC(C)(C)OC(=O)N1CCC(N(C(=O)c2ccccc2)c2ccc(F)cc2)CC1 | inactive: 1.34%
COc1ccc(C(=O)NCC2(N3CCCCC3)CCCCC2)c(OC)c1OC | inactive: -3.53%
COc1ccc(C(=O)NCC2(N3CCCCC3)CCCCC2)cc1 | inactive: -0.14%
O=C(NCC1(N2CCCCC2)CCCCC1)c1cccs1 | inactive: 1.04%
O=C(NCC1(N2CCCCC2)CCCCC1)c1ccc(=O)[nH]c1 | inactive: 2.08%
CN1CCC(Nc2ccc(Cl)cc2)CC1 | inactive: -2.74%
CCCOc1ccc(C)cc1CN(CCCl)CCCl | inactive: 3.94%
COc1cccc(C(=O)N(c2cc(C)cc(C)c2)C2CCN(C(=O)OC(C)(C)C)CC2)c1 | inactive: -0.196%
COc1cc(OC)cc(C(=O)NCC2(N3CCOCC3)CCCCC2)c1 | inactive: 0.757%
CCC(CO)(C(=O)OC1CN2CCC1CC2)c1ccccc1 (centres undefined) | inactive: -0.334%
O=C(O)C1(Nc2ccccc2)CCN(Cc2ccccc2)CC1 | inactive: -1.72%

SMILES | activity score (negative = inhibition of binding)
CC(C)(C)OC(=O)N1CCC(Nc2ccccc2)CC1 | inactive: -0.922%
CCCOc1ccc(C(=O)NCC2(N(C)C)CCCCC2)cc1 | inactive: 0.368%
CN1CCC(Nc2ccc(F)c(Cl)c2)CC1 | inactive: -0.19%
CCOc1ncccc1C(=O)NCC1(N2CCOCC2)CCCCC1 | inactive: 3.22%
CN(C)c1ccc(C(=O)NCC2(N3CCCCC3)CCCCC2)cc1 | inactive: 2.42%
CCN1CCC(Nc2cccc(F)c2)CC1 | inactive: -0.58%
Fc1ccccc1NC1CCN(Cc2ccccc2)CC1 | inactive: -1.04%
Cc1ccc(C(=O)NCC2(N3CCCCC3)CCCCC2)o1 | inactive: -0.0534%
COc1cc(OC)cc(C(=O)NCC2(N3CCCCC3)CCCCC2)c1 | inactive: 0.935%
CN(C)C1(CNC(=O)c2cccc(C#N)c2)CCCCC1 | inactive: -0.026%
CCCN1CCC(Nc2cc(OC)cc(OC)c2)CC1 | inactive: 8.22%
c1ccc(CN2CCC(Nc3ccccc3)CC2)cc1 | inactive: -0.458%
N#Cc1ccc(C(=O)NCC2(N3CCCCC3)CCCCC2)cc1 | inactive: 1.13%
CC(C)(C)OC(=O)N1CCC(N(C(=O)c2ccccc2)c2ccc(Cl)cc2)CC1 | inactive: -3.73%
CCc1cc(C(=O)NCC2(N3CCCCC3)CCCCC2)sc1C | inactive: 2.3%
O=C(OC1CN2CCC1CC2)C1c2ccccc2C=Cc2ccccc21 (centres undefined) | inactive: 3.93%
CCOC(=O)N1CCC(Nc2ccc(C)cc2)CC1 | inactive: 0.438%
N/C(=N\O)c1c(N)no[n+]1[O-] | inactive: 0.443%
COc1ccc(C(=O)NCC2(N3CCOCC3)CCCCC2)cc1OC | inactive: -0.398%
